The assay relates to dulcitol accumulation. The experiment in a line: Galactosemic rats, % lowering of dulcitol (galactitol) accumulation in vivo. Also on record: species or system Sprague-Dawley rats. The note with it: diaphragm, 9 mg/kg, 4 days. The source says:
Such experiments are exemplified hereinbelow after the listing of the following general comments pertaining to these experiments:
(a) Four or more groups of six male rats, 50-70 g, Sprague-Dawley strain, were used. The first group, the control group, was fed a mixture of laboratory chow (rodent Laboratory Chow, Purina) and glucose at 20% (w/w %) concentration. […] The test compound was either admixed to the diet or administered by gavage. In experiments involving compound administration in the diet, the average dose administered was calculated from the actual food intake of the animals in each group. The concentration of galactose in the diet of the treated groups was the same as that for the untreated galactosemic group.
(b) After four days, the animals were killed by decapitation. The eyeballs were removed and punctured with a razor blade; the freed lenses were rolled gently on filter paper and weighed. The sciatic nerves were dissected as completely as possible and weighed. Both tissues when frozen can be kept up to two weeks before being analyzed for galactitol.
Only two minor reagent changes were made: (a) the rinsing mixture was an aqueous 5% (w/v) trichloroacetic acid solution and (b) the stock solution was prepared by dissolving 25 mg of dulcitol in 100 mL of an aqueous trichloroacetic acid solution. […]

`COc1ccc2c(C(=S)N(C)CC(=O)O)cccc2c1C(F)(F)F` [Tolrestat, N-[[6-methoxy-5-(trifluoromethyl)-1-naphthalenyl]thioxo-methyl]-N-methylglycine, reference compound]: the “% Lowering dulcitol accumulation IN VIVO, D” value was determined as 87%.

The record behind these values is patent US4820727A, “N-acyl-N-naphthoylglycines as aldose reductase inhibitors” (American Home Products Corporation, priority 1987, dated 1989).
